Several values for one entry are separate records, joined by “and”; a condition that tells them apart may be missing. Identical values can stand only once. Like-named read-outs stand apart in the source and are kept apart here.
Assays:
[1] = Task 1A: surface adherence of contaminants on pipe materials, 7 days at 20-25° C.; assay type: physicochemical; settings: for Aqueous concentration of mercury, Conc. after 7-day / Ave. Adhesion Coefficient: 7 days, 20-25° C.; for Aqueous concentration of mercury, Conc. after 7-day: initial 22829.8 mg/L
[2] = for Aqueous concentration of mercury, 7-Day Adherence / Ave. Adhesion Coefficient: 7 days, 20-25° C.; for Aqueous concentration of mercury, 7-Day Adherence: initial 19530.00 mg/L
[3] = 20-25° C.; for Ave. Adhesion Coefficient: 24 hours
[4] = 4-6° C.; for Ave. Adhesion Coefficient: 7 days
rat = settings: oral (rat); cited from earlier work

## Mercuric chloride [Mercury]
[1]; ACI pipe
  Aqueous concentration of mercury, Conc. after 7-day: 3.5 to 8.2 mg/L
[1]; Copper pipe
  Aqueous concentration of mercury, Conc. after 7-day: 41.4 mg/L and 41.6 mg/L
[1]; Copper pipe, listed as mercury
  Aqueous concentration of mercury, Conc. after 7-day: about 41 mg/L
[1]; DIO pipe
  Aqueous concentration of mercury, Conc. after 7-day: 13836.1 mg/L and 11619.6 mg/L
[1]; HDPE and PVC pipes
  adherence of mercury: limited or no adherence
[1]; HDPE pipe
  Aqueous concentration of mercury, Conc. after 7-day: 22610.1 mg/L and 22845.6 mg/L
[1]; PVC and DIE pipes
  reduction in aqueous concentration after contact with pipe: Very limited or no reduction
[1]; PVC pipe
  Aqueous concentration of mercury, Conc. after 7-day: 22995.3 mg/L and 22763.5 mg/L
[1]; mercury on ACI pipe
  Ave. Adhesion Coefficient: 13.16 L/m^2
[1]; mercury on Copper pipe
  Ave. Adhesion Coefficient: 6.61 L/m^2
[1]; mercury on DIO pipe
  Ave. Adhesion Coefficient: 7.73 L/m^2
[1]; mercury on HDPE pipe
  Ave. Adhesion Coefficient: 0.03 L/m^2
[1]; ranking by adherence (mg/m^2) on the pipe surfaces
  Ranking Based on Adherence of a Particular Chemical on Various Surfaces: ACI > DIW > DIO > Copper > HDPE > PVC = DIE
[2]; COP (copper) pipe, before extraction with Pipe Klean
  Aqueous concentration of mercury, 7-Day Adherence: 2.21 mg/L and 3.21 mg/L
[2]; COP (copper) pipe, before extraction with Simple Green
  Aqueous concentration of mercury, 7-Day Adherence: 2.08 mg/L and 1.84 mg/L
[2]; COP (copper) pipe, before extraction with hypochlorite
  Aqueous concentration of mercury, 7-Day Adherence: 2.61 mg/L and 1.70 mg/L
[2]; DIE pipe, before extraction with Pipe Klean
  Aqueous concentration of mercury, 7-Day Adherence: 21971.00 mg/L and 22035.00 mg/L
[2]; DIE pipe, before extraction with Simple Green
  Aqueous concentration of mercury, 7-Day Adherence: 21626.00 mg/L and 21627.00 mg/L
[2]; DIE pipe, before extraction with hypochlorite
  Aqueous concentration of mercury, 7-Day Adherence: 21288.00 mg/L and 21653.00 mg/L
[2]; DIW, Task 2, before application of decontaminants, range over groups
  adhesion coefficients of adhered mercury: 10.4 to 13.9 L/m^2
[2]; PVC pipe, before extraction with Pipe Klean
  Aqueous concentration of mercury, 7-Day Adherence: 22578.00 mg/L and 22655.00 mg/L
[2]; PVC pipe, before extraction with Simple Green
  Aqueous concentration of mercury, 7-Day Adherence: 19850.00 mg/L and 20343.00 mg/L
[2]; PVC pipe, before extraction with hypochlorite
  Aqueous concentration of mercury, 7-Day Adherence: 19694.00 mg/L and 20876.00 mg/L
[2]; mercury on Copper pipe, Before Application of Chlorine (300 mg/L)
  Ave. Adhesion Coefficient: 6.77 L/m^2
[2]; mercury on Copper pipe, Before Application of Pipe-Klean (1%)
  Ave. Adhesion Coefficient: 6.76 L/m^2
[2]; mercury on Copper pipe, Before Application of Simple Green (15%)
  Ave. Adhesion Coefficient: 6.72 L/m^2
[2]; mercury on DIW pipe, Before Application of Chlorine (300 mg/L)
  Ave. Adhesion Coefficient: 13.89 L/m^2
[2]; mercury on DIW pipe, Before Application of Pipe-Klean (1%)
  Ave. Adhesion Coefficient: 10.41 L/m^2
[2]; mercury on DIW pipe, Before Application of Simple Green (15%)
  Ave. Adhesion Coefficient: 13.49 L/m^2
[3]; Copper pipe, Mercury #1, initial 8171.5 mg/L
  Aqueous concentration, Conc. after 24 hrs: 1.5 mg/L and 1.7 mg/L
[3]; Copper pipe, Mercury #2, initial 23950.0 mg/L
  Aqueous concentration, Conc. after 24 hrs: 10100.0 mg/L and 8180.0 mg/L
[3]; DIW pipe, Mercury #1, initial 8171.5 mg/L
  Aqueous concentration, Conc. after 24 hrs: 5218.0 mg/L and 2874.2 mg/L
[3]; DIW pipe, Mercury #2, initial 23950.0 mg/L
  Aqueous concentration, Conc. after 24 hrs: 15100.0 mg/L and 17900.0 mg/L
[3]; Mercury^1 (initial 8171.5 mg/L) on Copper pipe
  Ave. Adhesion Coefficient: 6.61 L/m^2
[3]; Mercury^1 (initial 8171.5 mg/L) on DIW pipe
  Ave. Adhesion Coefficient: 7.47 L/m^2
[3]; Mercury^1 (initial 8171.5 mg/L) on PVC pipe
  Ave. Adhesion Coefficient: 0.39 L/m^2
[3]; Mercury^2 (initial 23950.0 mg/L) on Copper pipe
  Ave. Adhesion Coefficient: 4.15 L/m^2
[3]; Mercury^2 (initial 23950.0 mg/L) on DIW pipe
  Ave. Adhesion Coefficient: 5.41 L/m^2
[3]; PVC pipe, Mercury #1, initial 8171.5 mg/L
  Aqueous concentration, Conc. after 24 hrs: 7758.0 mg/L and 7627.0 mg/L
[3]; PVC pipe, Mercury #2, initial 23950.0 mg/L
  Aqueous concentration, Conc. after 24 hrs: 24800.0 mg/L and 23100.0 mg/L
[4]; Copper pipe, Mercury #1, initial 7737.5 mg/L
  Aqueous concentration of mercury, 7-Day Adherence: 0.7 mg/L and 1.1 mg/L
[4]; Copper pipe, Mercury #2, initial 28800.0 mg/L
  Aqueous concentration of mercury, 7-Day Adherence: 5750.0 mg/L and 4880.0 mg/L
[4]; DIW pipe, Mercury #2, initial 28800.0 mg/L
  Aqueous concentration of mercury, 7-Day Adherence: 20200.0 mg/L and 20500.0 mg/L
[4]; Mercury^1 (initial 7737.5 mg/L) on Copper pipe
  Ave. Adhesion Coefficient: 6.58 L/m^2
[4]; Mercury^1 (initial 7737.5 mg/L) on DIW pipe
  Ave. Adhesion Coefficient: 16.30 L/m^2
[4]; Mercury^2 (initial 28800.0 mg/L) on Copper pipe
  Ave. Adhesion Coefficient: 5.45 L/m^2
[4]; Mercury^2 (initial 28800.0 mg/L) on DIW pipe
  Ave. Adhesion Coefficient: 5.62 L/m^2
[4]; PVC pipe, Mercury #1, initial 7737.5 mg/L
  Aqueous concentration of mercury, 7-Day Adherence: 7944.0 mg/L and 8238.0 mg/L
[4]; PVC pipe, Mercury #2, initial 28800.0 mg/L
  Aqueous concentration of mercury, 7-Day Adherence: 28900.0 mg/L and 32000.0 mg/L
rat
  LD50: 1 mg/kg

## Mevinphos
rat
  LD50: LD50 oral (rat) 3.7-6.1 mg/kg

Reference: patent publication US20150344822A1, “Decontaminant and Process for Decontamination of Chemicals from Infrastructural Materials” (priority 2014, published 2015)
